This note sets out measurements from patent US8815844B2, “Mitochondrial activity inhibitors of cancer-initiating cells and use thereof” (Universite de Geneve, priority 2009, dated 2014).

This test concerns FL1^+ cells (glioma-initiating cells, gliomasphere cultures). The experiment in a line: in vitro recurrence assay (treatment then recovery), viable FL1+ cells by FACS. Format: cell-based, human. The conditions noted are these: temsirolimus (1 μM elsewhere in the source), 5 μM cyclopamine, 5 μM DAPT. An excerpt:
In contrast to other methods, which preferentially use cancer cell lines and stem cell marker like CD133 as a read-out of stemness, the Applicants' technology relies on primary cell cultures derived from human specimen and on a simple and unbiased detection of CICs independently of the use of any marker. Thus Applicants took advantage of such methodology to design and develop an in vitro recurrence assay to screen and validate potential therapeutic agents for eradicating cancer stem cells in glioma. […] The novelties here reside on the read-out of stemness used for testing the efficiency of any drug and on the possibility to identify specific anti-CSC agent.
Basically, any agent or inhibitor would be considered as an efficient anti-CSC agent if it fulfils the following criteria:
• 1) a viability of GICs (FL1^+ cells) decreases for more than 50% during the exposure to said agent or inhibitor during a maximum of 20 days, • 2) a recovery of GICs (FL1^+ cells) is less than 0.2 fold during the recovery phase of a maximum of 20 days, and • 3) the viability of normal brain cells is sustainable and recoverable during and after the exposure to the said agent or inhibitor.
a) Providing a cancer stem cell sample;
b) Treating the cancer stem cell sample provided under (a) with an agent; […]
On the technique in general: In flow cytometry, cells or beads pass a laser one at a time.

As for `CC1=C2C[C@H]3[C@@H](CC=C4C[C@@H](O)CC[C@@]43C)[C@@H]2CC[C@]12O[C@@H]1C[C@H](C)CN[C@H]1[C@H]2C` [cyclopamine, Cyclopamine], the “number of viable FL1^+ cells” value is “decrease of the number of viable FL1^+ cells”.
